# Ab-14 heavy chain CDR variants: yeast mating affinities

Reference: Engelhart et al. 2022, doi:10.1038/s41597-022-01779-4. File: FLAb, binding data.

Binding partner: SARS-CoV-2 spike HR2 peptide, sequence PDVDLGDISGINAS.

Parent: Ab-14, a human scFv built as VH, the linker GGGGSGGGGSGGGGS, VL. Only the CDRs of the heavy chain vary.
VH: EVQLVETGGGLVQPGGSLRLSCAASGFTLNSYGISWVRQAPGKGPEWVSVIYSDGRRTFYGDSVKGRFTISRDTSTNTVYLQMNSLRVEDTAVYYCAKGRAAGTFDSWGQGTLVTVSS
VL: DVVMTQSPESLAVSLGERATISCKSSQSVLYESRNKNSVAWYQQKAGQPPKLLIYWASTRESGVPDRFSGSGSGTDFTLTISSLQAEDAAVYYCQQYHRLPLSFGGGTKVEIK

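The parent was found by panning a naive human phage display library on the peptide. The library (AAYL49) carries one to three amino acid substitutions per variant, with no insertions or deletions. In AlphaSeq, yeast of one mating type display the scFv and yeast of the other type display the target. The frequency of each diploid, read from paired DNA barcodes, reflects how well the two displayed proteins bind. Scores were corrected for input abundance and mapped to Kd with protein pairs of known affinity run in the same pool. Mating was done three times.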

The parent's heavy chain CDRs are GFTLNSYGIS, VIYSDGRRTFYGDSVK, GRAAGTFDS; each variant's own CDRs replace them letter for letter.
Each Kd is an estimate from the mating assay, the geometric mean of the replicates in which the pair was seen; lower is stronger.
A pair that was not seen in any replicate is written "no signal"; this usually means weak binding, but a binder can also be missed.
Three control strains display no target. For library AAYL49, 15% of the pairings with them gave a signal, with a median of 11 µM and one signal in twenty below 680 nM, so weak values seen in few replicates may be background.
For reference, the parent read 4.4 nM as the reference entry and 13 µM (one replicate of three) as a member of this library.

| # | CDR-H1 | CDR-H2 | CDR-H3 | Kd | replicates with signal |
|---|---|---|---|---|---|
| 1 | GKTLDSYGIS | VIYSDGRRTFYGDSVK | GRAAGTFAS | 75 nM | 3 of 3 |
| 2 | CDTLNSYGIS | VIYSDGRRTFYGDSPK | GRAAGTFDS | 5.6 µM | 3 of 3 |
| 3 | GFTPNSYGIS | VIYSDGRRLFYGDSVE | GRAAGTFDS | 130 µM | 2 of 3 |
| 4 | GFTLNSYGIL | VIASDGRRTFYGDSVK | GRAAGLFDS | 89 µM | 3 of 3 |
| 5 | GFTLNSYGIS | VIYSIGRRTFYGDSVK | GRAAGTFFR | no signal | 0 of 3 |
| 6 | GFTLKSYGIS | VIYSDWRRTFYGDSVK | GRAAGTVDS | no signal | 0 of 3 |
| 7 | GFTLNSYHIS | HIYSDGRRTFYGDSVQ | GRAAGTFDS | 20 µM | 2 of 3 |
| 8 | GFTLNSYGIN | VIYSDGRRTFYGDSLK | RRAAGTFDS | no signal | 0 of 3 |
| 9 | GFTLNSYGIS | VIYSRGRRTNYGDSVK | GRANGTFDS | no signal | 0 of 3 |
| 10 | GFTLLSYGIR | VIYSDGRRWFYGDSVK | GRAAGTFDS | no signal | 0 of 3 |
| 11 | PFTLNMYGIS | VIYSDGRRTFYHDSVK | GRAAGTFDS | 34 nM | 3 of 3 |
| 12 | GFTTNSYGIS | VIYSDGRRTFYGDSVK | RRAAGTPDS | no signal | 0 of 3 |
| 13 | GFTLNSDGIS | VIYKDGRCTFYGDSVK | GRAAGTFDS | 20 µM | 2 of 3 |
| 14 | GFTENCYWIS | VIYSDGRRTFYGDSVK | GRAAGTFDS | 2.1 µM | 1 of 3 |
| 15 | GRTLNSYGIS | VIYSDGRRRFYGDWVK | GRAAGTFDS | no signal | 0 of 3 |
| 16 | GFTLNSYGIS | VIYSDTRRTFYWDSVK | GRYAGTFDS | no signal | 0 of 3 |
| 17 | LFTLNSYGIS | VGYSDGRRTFVGDSVK | GRAAGTFDS | 4.3 µM | 1 of 3 |
| 18 | GFTLNSYGCS | VIYSDGVRTFYGDSVK | SRAAGTFDS | no signal | 0 of 3 |
| 19 | GFTLNSSGIS | VIYSDGRRPFYGDTVK | GRAAGTFDS | 130 µM | 1 of 3 |
| 20 | GFTLNSYIIS | VIYSDGMRTFYGDSVK | GRAAGTFDC | 92 µM | 3 of 3 |
| 21 | GFTLNSYGIA | VITSDGRRTFYGDSVK | GRAAGTFDS | 680 nM | 1 of 3 |
| 22 | GFTLNIGMIS | VIYSDGRRTFYGDSVK | GRAAGTFDS | 380 µM | 1 of 3 |
| 23 | GFTLNSYGIS | VCYSDGRRTFYGDAYK | GRAAGTFDS | 130 µM | 3 of 3 |
| 24 | GFTLNSYGIS | VIYSDGRRTFYIDSVK | GRAAGEFDS | 600 nM | 3 of 3 |
| 25 | GFTLNSYGIL | VIYSDGRRTFYGDSVR | GRAAGTFDS | no signal | 0 of 3 |
| 26 | GFTQNSYGIS | VIYSDGRRTFYGCSVK | GHAAGTFDS | 15 µM | 1 of 3 |
| 27 | GFTLNSYGIS | VIYVDGRRTRYGDSVK | GRAAGTKDS | no signal | 0 of 3 |
| 28 | GFTLHSYGIS | VIYSDGRRDFYGDSVK | GRAAGTFIS | no signal | 0 of 3 |
| 29 | GFTLNSYGIS | VIYSDGRRTMYGDSFK | GRAAGTFDS | 6.7 nM | 3 of 3 |

Continued, with the values leading:

| # | Kd | replicates with signal | CDR-H1 | CDR-H2 | CDR-H3 |
|---|---|---|---|---|---|
| 30 | no signal | 0 of 3 | GFTLNSYYIS | VIYSDGRRTFYGIYVK | GRAAGTFDS |
| 31 | 340 nM | 3 of 3 | GFTLNSYGIH | VIYSDGRRTFYGSSVK | GWAAGTFDS |
| 32 | no signal | 0 of 3 | GFTLNSHGIS | VIYSDGVQTFYGDSVK | GRAAGTFDS |
| 33 | 76 µM | 1 of 3 | GFTLNSYGIS | VIYSDGRTTFYGDSVK | GRAAGTWDS |
| 34 | no signal | 0 of 3 | GFTLNSYCIS | VIYSDGRRTFYGDVVK | GHAAGTFDS |
| 35 | 14 µM | 1 of 3 | TFTLNSYGIS | VIYSDGRRSFYGDSVK | GRAAGTFKS |
| 36 | no signal | 0 of 3 | GFTLNSYGIS | VIMSDGRRKFYGDSVK | GVAAGTFDS |
| 37 | no signal | 0 of 3 | GFTLNSYGIS | VIYSDMRRTFYGDSVK | GRAYGTFSS |
| 38 | no signal | 0 of 3 | GFTLNSYGIS | VIYSDGRRTLYGWSVK | GRAAMTFDS |
| 39 | 33 µM | 1 of 3 | RFTINSYGIS | VIYLDGRRTFYGDSVK | GRAAGTFDS |
| 40 | 94 µM | 2 of 3 | GFTLNSYGIS | VIYSDGRRWFYGDSVK | GRATGRFDS |
| 41 | no signal | 0 of 3 | GFGLNSYGIS | VPYSDGRKTFYGDSVK | GRAAGTFDS |
| 42 | 59 µM | 2 of 3 | GFTLNSYGIS | HIKSDGRRTFYGDSVK | KRAAGTFDS |
| 43 | 56 µM | 1 of 3 | GFTLNSYGIS | VIYSRGRRTFYGDSVK | GRAARTNDS |
| 44 | 5.1 µM | 2 of 3 | GFTLNSYGIS | VAYSDGRRTFHGDSVK | GRAAGTRDS |
| 45 | no signal | 0 of 3 | GFTLNSYYPS | VIYSDGRRTFYGDSVK | GRAAGTFDS |
| 46 | no signal | 0 of 3 | GFTLNSYGIS | VIYSIGRRTFYGDDVK | GRAAGTFFS |
| 47 | no signal | 0 of 3 | GFTLNSYGGS | TIYSDGRRTFYGDEVK | GRAAGTFDS |
| 48 | 9.0 µM | 1 of 3 | GFTLNSYGIS | VWYRDGRRTFYGDSVK | GREAGTFDS |
| 49 | no signal | 0 of 3 | GFTHNSYGCS | VIYSDGRRTFYGDSVK | GRAAGTFDT |
| 50 | no signal | 0 of 3 | SFTLNSYGIS | HIYSDGRRTFYGDGVK | GRAAGTFDS |
| 51 | 490 nM | 3 of 3 | GFTLNSYGIS | VIYSDGRRTFYGDSVK | GRAAGHAGS |
| 52 | no signal | 0 of 3 | FFTLNSYGIS | VIYSDGRRTFYGDSVY | GRAAGTFDS |
| 53 | 41 µM | 2 of 3 | GFTLNSYGIS | VIYSDCRRTFYGDYVK | GRAAGTFDS |
| 54 | no signal | 0 of 3 | GFTLNSRGIS | VIYSDGRRTFPGDSVK | GRAACTFDS |
| 55 | 9.3 µM | 2 of 3 | GFTLNSYGIS | VIYNDARRNFYGDSVK | GRAAGTFDS |
| 56 | 4.1 µM | 1 of 3 | GFTLNSYGIS | VIYSDRRRRFYGDSVK | GRAAITFDS |
| 57 | no signal | 0 of 3 | GTTLNSYGIQ | VIYPDGRRTFYGDSVK | GRAAGTFDS |
| 58 | no signal | 0 of 3 | GFGLNSYGIS | VIYSDGRRTPYGDSKK | GRAAGTFDS |
| 59 | no signal | 0 of 3 | EFTLNSFGIS | VIYSDGRRTFYGDSVK | GRANGTFDS |